Reference: patent US5821219A (priority 1995, dated 1998)

Legend:
mice [1] = assay: Open-field observation and locomotor activity (Digiscan) in mice; assay type: in vivo; conditions: larger doses, above 1 nmole/2 μL/mouse
mice [2] = conditions: 10 nmole OFQ icv
mice [3] = assay: Reversal of morphine analgesia, 49° C. tail withdrawal latency; conditions: 25 nmol OFQ icv
mice [4] = assay: Precipitation of withdrawal (jumping) in morphine dependent C57BL/6J mice; conditions: OFQ doses >5 nmole
mice [5] = conditions: mouse, in vivo

## CC(C)C[C@H](NC(=O)[C@H](CCCCN)NC(=O)[C@H](CCCN=C(N)N)NC(=O)[C@H](C)NC(=O)[C@H](CO)NC(=O)[C@H](CCCCN)NC(=O)[C@H](CCCN=C(N)N)NC(=O)[C@H](C)NC(=O)CNC(=O)[C@@H](NC(=O)[C@H](Cc1ccccc1)NC(=O)CNC(=O)CNC(=O)[C@@H](N)Cc1ccccc1)[C@@H](C)O)C(=O)N[C@@H](C)C(=O)N[C@@H](CC(N)=O)C(=O)N[C@@H](CCC(N)=O)C(=O)O [orphanin FQ]
Mice [1]
  behavioral signs in open-field observation: profound influence on locomotor activity, as well as a decrease in muscle tone, a loss of righting reflex, and ataxia
Mice [2]
  hyperalgesia in TW test: no evidence of hyperalgesia
Mice [3]
  marked atonia and flaccid paralysis: up to 50 % of mice
Mice [4]
  atonia: produced atonia in some morphine-dependent mice
Mice [5]
  side effects, intrathecal: hind limb paralysis and decrease in locomotor activity
  toe- and tail-pinch reflexes: normal toe- and tail-pinch reflexes
